Patent US4877774A, “Administration of steroid hormones” (The United States of America as represented by the …, priority 1987, dated 1989)

Assay: phase-solubility of testosterone-gamma-cyclodextrin system in water, 25° C.
Protocol: The appropriate proportions in the mixture can be determined by examining the descending curvature of the Bs-type phase solubility of FIG. 1.
The appropriate mixture was determined by examining the descending curvature of the Bs-type phase solubility diagram, as shown in FIG. 1. […] The complex, which precipitated as a microcrystalline powder, was removed by filtration and dried under vacuum at room temperature for 24 hours.

Structure (SMILES): OC[C@H]1O[C@@H]2O[C@H]3[C@H](O)[C@@H](O)[C@@H](O[C@H]4[C@H](O)[C@@H](O)[C@@H](O[C@H]5[C@H](O)[C@@H](O)[C@@H](O[C@H]6[C@H](O)[C@@H](O)[C@@H](O[C@H]7[C@H](O)[C@@H](O)[C@@H](O[C@H]8[C@H](O)[C@@H](O)[C@@H](O[C@H]9[C@H](O)[C@@H](O)[C@@H](O[C@H]1[C@H](O)[C@H]2O)O[C@@H]9CO)O[C@@H]8CO)O[C@@H]7CO)O[C@@H]6CO)O[C@@H]5CO)O[C@@H]4CO)O[C@@H]3CO [gamma-cyclodextrin]
- concentration of gamma-cyclodextrin at which the complex began to crystallize out: about 13 mM
